Assay outcomes: PubChem, National Center for Advancing Translational Sciences (NCATS)
A549 tox = counter-screen for Nrf2 inhibitors: cytotoxicity in A549 cells. A549 ARE-Fluc cells, CellTiter-Fluor viability, 18-24 h. Potency, µM (titrated, usually from 46 µM), usual class: inhibitors. 390,000 tested, 0.16% active. AID 504648
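Cytotoxicity counterscreen: CellTiter-Fluor fluorescence was measured in A549 ARE_Fluc cells after 18-24 h of compound exposure in a concentration series. The subsequent BugLite luminescent read reports ARE-luciferase activity.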
PTAP TSG101 blk = blocks PTAP/TSG101 interaction to inhibit HIV-1 budding | Q99816 | Fluorescence polarization, FITC-PTAP peptide / Tsg101 binding | Potency, µM (series often up to 115 µM), hits mostly inhibitors | 340,000 tested, under 10 active; active = well fitted inhibition curve with a large enough effect in the main read-out, with a control signal flat, not every such curve was filed as active; inconclusive = small, poorly fitted or top-dose-only effect, or effect the other way, or a change in a side signal; inactive = no such curve, though single readings can be large or run the other way
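Fluorescence anisotropy tracks displacement of a FITC-tagged PTAP peptide (50 nM) from the Tsg101 binding domain (10 uM), following a 20 min room-temperature incubation at pH 7.5.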
miR-21 FLuc = miR-21 reporter, rising signal | HeLa miR-21 FLuc reporter, luciferase, 48 h | Potency, µM (top dose mostly 38.3 µM) | 340,000 tested, under 10 active | AID 2288; active = well fitted rising curve with a large enough effect; inconclusive = small, poorly fitted or top-dose-only effect; inactive = no such curve, though single readings can be large or run the other way;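 further: miR-21 action dims this reporter so a rising signal means less miR-21 action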
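Using DMEM plus 10% FBS, HeLa miR-21-FLuc cells are incubated with test compounds (final up to about 40uM) for 48 hours; firefly luciferase signal is then imaged following reagent-mediated lysis.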
GRP78 ERSR act = ER stress response induction in glioma; AID 602332; U87-MG GRP78 promoter luciferase reporter, 16 h; Potency, µM, usual class: activators; 420,000 tested, 0.02% active; also: series mostly up to about 76 µM; nearly all actives have a fitted effect of over 35% in size
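Stably transfected U87-MG glioma cells carrying a GRP78-based luciferase sensor; 16 h compound incubation. Luminescence end-point read 10 min after Bright-Glo addition at room temperature.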
Nrf2 activator = Nrf2 pathway activation | Potency, µM (top dose mostly 46.1 µM), usual class: activators | 410,000 tested, 0.31% active | AREc32 ARE-luciferase reporter (MCF7-derived line), luminescence, 24 h; also: nearly all actives have a fitted effect of over 65% in size
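AREc32_Fluc, 1000 cells/well, OPTI-MEM + 5% FBS, o/n 37 deg C 5% CO2; 23 nL cpd by pin tool, 24 hr; Steady-Glo 30 min RT, luminescence.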
Nrf2 block = Nrf2 pathway inhibition. AID 504444. A549 ARE-Fluc reporter, luciferase luminescence, 18-24 h. 360,000 tested, 2.1% active. Potency, µM (top dose mostly 46 µM), most hits filed as inhibitors; also: nearly all actives have a fitted effect of over 60% in size
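In this cell-based qHTS, ARE-driven firefly luciferase in A549 cells reports Nrf2 activity; the luminescent signal after BugLite lysis is the measured value, with a prior CellTiter-Fluor read for cell health.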
A number is an active result; . = inactive; ? = inconclusive; / = no result given; [ ] = dose if it differs, or a comment. Hits are enriched below; roughly 2.1% of the tested compounds scored in any of these assays. Unless noted, calls follow the shape of the dose curve; as a rule, active = well fitted curve in the direction sought with a large enough effect; inconclusive = small, poorly fitted or top-dose-only effect, or another doubt; inactive = no such curve, though single readings can be large; an effect the other way counts as inactive or inconclusive.

SMILES	A549 tox	PTAP TSG101 blk	miR-21 FLuc	GRP78 ERSR act	Nrf2 activator	Nrf2 block
Fc1ccc(CNc2nc(-c3ccc(Cl)cc3)cc(C(F)(F)F)n2)cc1	.	/	.	.	.	.[9.27 µM]
Cc1cc(-c2ccccc2)nc(N/N=C/c2ccc(O)cc2)n1	.	.	/	.	8.9µM	.
Oc1ccc(/C=N/Nc2nc(-c3ccc(Cl)cc3)cc(C(F)(F)F)n2)cc1	?	.	?	.	.	16µM
COc1ccc(/C(C)=N/Nc2nc(C)cc(-c3ccccc3)n2)cc1	.	.	/	.	.	15µM
C/C(=N\Nc1nc(C)cc(-c2ccccc2)n1)c1ccc(F)cc1	.	.	.	.	.	?
c1ccc(Cn2ncc3c(NCc4ccco4)ncnc32)cc1	.	.	.	.	4µM	?
Cc1ccc2[nH]c3c(NCc4ccco4)ncnc3c2c1	.	.	.	.	.	?
Fc1ccc2[nH]c3c(NCc4ccco4)ncnc3c2c1	.	/	/	.	/	12µM
COc1ccc(/C=N/Nc2ncnc3c2[nH]c2ccc(C)cc23)c(OC)c1OC	.	.	.	.	.	?
COc1cc(CNc2ncnc3c2[nH]c2ccc(C)cc23)cc(OC)c1	.	.	.	.	.	15µM
c1ccc(-n2ncc3c(NCc4ccco4)ncnc32)cc1	.	.	.	.	.	?
c1coc(CNc2ncnc3c2oc2ccccc23)c1	.	.	.	.	1.6µM	?
O=C(CSCc1cccc(CSCC(=O)Nc2ccc3ccccc3c2)n1)Nc1ccc2ccccc2c1	.	.	?	.	.	13µM
O=C(CSCc1nc2ccccc2[nH]1)Nc1ccc2ccccc2c1	.	.	.	.	.	.
COc1c(C(=O)Nc2nnc(C3CC3)s2)csc1Cl	.	.	.	.	8.9µM	?
CCn1nc(C(=O)Nc2ccccc2C)c(Cl)c1Cl	.	.	.	.	.	.
CCn1nc(C(=O)Nc2cccc3ccccc23)c(Cl)c1Cl	.	.	.	.	7.1µM	.
O=c1c(-c2nnc(SCc3ccc(Cl)cc3)o2)cccn1Cc1ccccc1	?	.	.	.	.	21µM
CC(=O)N1CCc2c(sc3c2c(=O)n(Cc2ccccc2)c(=O)n3Cc2cccc(Cl)c2)C1	.	/	.	.	.	21µM
CCCN(CCC)C(=O)CC(c1ccccc1)c1cc(Br)ccc1O (configuration not stated)	?	.	.	.	.	16µM
CCC(C)(C)OC(=O)N[C@@H](Cc1c[nH]c2ccccc12)C(=O)N[C@@H](CCSC)C(=O)N[C@@H](CC(=O)O)C(=O)N[C@@H](Cc1ccccc1)C(N)=O	/	/	/	.	/	/
Cc1ccc2c(c1)=N/C(=N\c1[nH]c(O)c3ccccc13)N=2	/	/	/	?	.	/
Oc1[nH]c(N=C2N=c3ccccc3=N2)c2ccccc12	?	.	.	.	5.6µM	?
O=C(/C=C/c1ccccc1)NC(NC(=S)Nc1cccc(O)c1)C(Cl)(Cl)Cl (configuration not stated)	.	.	.	.	.	.
O=C(/C=C/c1ccccc1)NC(NC(=S)Nc1ccc(Cl)cc1Cl)C(Cl)(Cl)Cl (configuration not stated)	?	.	?	.	.	21µM
SMILES	A549 tox	PTAP TSG101 blk	miR-21 FLuc	GRP78 ERSR act	Nrf2 activator	Nrf2 block
O=C(/C=C/c1ccccc1)NC(NC(=S)Nc1ccc(C(=O)O)cc1)C(Cl)(Cl)Cl (configuration not stated)	.	.	.	.	.	.
O=C(/C=C/c1ccccc1)NC(NC(=S)Nc1cccc(Cl)c1)C(Cl)(Cl)Cl (configuration not stated)	?	.	.	.	.	7.3µM
Fc1ccc(C(c2ccc(F)cc2)N2CCN(CC=Cc3ccccc3)CC2)cc1	/	/	/	.	/	/
CC(C)(C)c1ccc(C(=O)C[n+]2cccc(Br)c2)cc1	/	/	/	.	/	/
COc1ccccc1NC(CC(=O)c1ccccc1)C(=O)OCC(=O)c1ccc(C)c(C)c1 (configuration not stated)	.	.	.	.	13µM	?
COc1ccccc1NC(CC(=O)c1ccccc1)C(=O)OCC(=O)c1ccc(Br)cc1 (configuration not stated)	.	.	.	.	22µM	?
